Data as given in article PMC8419314, “Characterization of Compound-Specific, Concentration-Independent Biophysical Properties of Sodium Channel Inhibitor Mechanism of Action Using Automated Patch-Clamp Electrophysiology” (Frontiers in Pharmacology, 2021).
Several values for one entry are separate records, joined by “and”; a condition that tells them apart may be missing. Equal entries are not always repeated. Where two headings read alike, the source gives them in different places.

The chains behind the UniProt entries cited, without tags or fusion partners.
UniProt P15390, whole entry: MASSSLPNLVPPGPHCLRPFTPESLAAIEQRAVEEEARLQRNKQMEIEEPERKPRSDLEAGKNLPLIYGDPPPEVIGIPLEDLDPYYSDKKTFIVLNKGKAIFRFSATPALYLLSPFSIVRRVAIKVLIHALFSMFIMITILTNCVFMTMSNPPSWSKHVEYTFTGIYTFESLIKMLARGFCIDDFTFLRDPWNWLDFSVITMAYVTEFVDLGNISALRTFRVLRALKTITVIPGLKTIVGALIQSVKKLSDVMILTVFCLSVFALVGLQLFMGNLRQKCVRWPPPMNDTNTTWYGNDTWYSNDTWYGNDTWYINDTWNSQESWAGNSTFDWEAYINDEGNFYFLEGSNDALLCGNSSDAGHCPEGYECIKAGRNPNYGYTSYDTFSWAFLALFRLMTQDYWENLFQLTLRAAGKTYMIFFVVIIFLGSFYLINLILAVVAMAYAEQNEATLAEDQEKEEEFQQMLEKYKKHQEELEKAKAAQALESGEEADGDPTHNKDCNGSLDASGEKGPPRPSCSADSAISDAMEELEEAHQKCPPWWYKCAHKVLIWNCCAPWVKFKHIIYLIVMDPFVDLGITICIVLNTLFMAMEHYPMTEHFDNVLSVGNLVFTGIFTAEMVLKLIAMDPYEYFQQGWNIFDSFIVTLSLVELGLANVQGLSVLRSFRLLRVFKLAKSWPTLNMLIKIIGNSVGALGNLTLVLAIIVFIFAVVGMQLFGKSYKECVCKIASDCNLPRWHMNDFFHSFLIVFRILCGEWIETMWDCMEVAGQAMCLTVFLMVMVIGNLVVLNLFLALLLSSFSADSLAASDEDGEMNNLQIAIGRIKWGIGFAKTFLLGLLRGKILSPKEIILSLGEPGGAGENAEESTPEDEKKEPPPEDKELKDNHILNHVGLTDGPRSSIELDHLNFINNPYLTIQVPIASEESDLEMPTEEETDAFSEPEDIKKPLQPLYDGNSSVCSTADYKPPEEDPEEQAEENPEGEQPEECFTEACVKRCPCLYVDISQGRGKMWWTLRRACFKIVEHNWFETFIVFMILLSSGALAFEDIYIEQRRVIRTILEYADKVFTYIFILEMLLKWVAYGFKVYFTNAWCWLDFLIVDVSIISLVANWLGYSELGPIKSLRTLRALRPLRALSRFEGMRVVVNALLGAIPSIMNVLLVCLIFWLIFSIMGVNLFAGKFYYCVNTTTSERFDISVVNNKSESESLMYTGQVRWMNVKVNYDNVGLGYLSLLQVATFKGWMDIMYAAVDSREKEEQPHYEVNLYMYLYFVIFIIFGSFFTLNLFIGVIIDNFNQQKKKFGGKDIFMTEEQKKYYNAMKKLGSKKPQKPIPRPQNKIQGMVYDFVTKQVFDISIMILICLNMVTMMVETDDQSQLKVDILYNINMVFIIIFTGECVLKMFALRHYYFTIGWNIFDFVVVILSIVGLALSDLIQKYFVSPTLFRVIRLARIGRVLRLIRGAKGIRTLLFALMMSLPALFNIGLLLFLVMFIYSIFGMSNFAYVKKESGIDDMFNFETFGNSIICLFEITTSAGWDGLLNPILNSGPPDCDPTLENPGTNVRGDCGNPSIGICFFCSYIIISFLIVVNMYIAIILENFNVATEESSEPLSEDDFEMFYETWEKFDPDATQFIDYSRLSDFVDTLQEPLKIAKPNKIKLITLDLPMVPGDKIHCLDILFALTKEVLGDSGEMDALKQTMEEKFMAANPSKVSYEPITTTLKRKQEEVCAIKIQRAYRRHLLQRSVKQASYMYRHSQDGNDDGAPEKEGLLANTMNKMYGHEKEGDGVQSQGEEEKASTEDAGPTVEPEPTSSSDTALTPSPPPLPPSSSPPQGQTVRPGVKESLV

What was measured:
rNaV1.4 channel = biological target: T1, rNaV1.4 channel (Rattus norvegicus, UniProt P15390); assay: automated patch-clamp 17-pulse protocol (SDO, RFI, SSI), IonFlux Mercury, cell ensembles; assay type: cell-based
T1 construct: expressed in transfected cells; host or cells: HEK 293
Method: Cell culture and electrophysiology were done as described in the accompanying paper ([Lukacs et al., 2021]). The recombinant rNaV1.4 channel-expressing cell line was generated as described before ([Lukacs et al., 2018]). Transfected HEK 293 cells were maintained in Dulbecco’s Modified Eagle Medium, high glucose supplemented with 10% v/v fetal bovine serum, 100 U/ml of penicillin/streptomycin, and 0.4 mg/ml Geneticin (Life Technologies, Carlsbad, CA). For experiments, cells were dissociated from culture dishes with Accutase (Corning), shaken in serum-free medium for 60 min at room temperature, then centrifuged, and resuspended into the extracellular solution to a concentration of 5 × 10^6 cells/mL. Voltage-clamp recordings were performed on an IonFlux Mercury instrument (Fluxion Biosciences). The composition of solutions (in mM) was: Intracellular solution: 50 CsCl, 10 NaCl, 60 CsF, 20 EGTA, and 10 HEPES; pH 7.2 (adjusted with 1 M CsOH). Extracellular solution: 140 NaCl, 4 KCl, 1 MgCl2, 2 CaCl2, 5 D-Glucose, and 10 HEPES; pH 7.4 (adjusted with 1 M NaOH). The osmolality of intra-and extracellular solutions was set to ∼320 and ∼330 mOsm, respectively. Data were sampled at 20 kHz, and filtered at 10 kHz. Experiments were carried out at room temperature.
Each zone consists of 8 separate sections, which are distinct functional units, containing 12 wells: one well for the cell suspension, one well for the waste, two cell “traps” (intracellular solution-filled wells under negative pressure to establish high resistance seals and then whole-cell configuration), and eight compound wells. […] Two kinds of microfluidic plates are manufactured: In single-cell plates, each cell trap contains a single hole and therefore catches a single cell. In “ensemble plates” there are 20 holes in each cell trap, and 20 cells are recorded simultaneously. […] From the 16 cell ensembles of each zone, we chose n = 6 ensembles for analysis.
We used a complex 17-pulse voltage protocol (Figure 1A), described in detail in the accompanying paper ([Lukacs et al., 2021]), which allowed the assessment of gating kinetics and gating equilibrium in the absence and the presence of inhibitor/modulator compounds. The protocol investigated the effect of different durations of depolarizations: 2.5, 7.5, 22.5, and 67.5 ms with 2.5 ms hyperpolarizing gaps between them; this section (pulses #1 to #5) is shown by different shades of green in Figure 1, and was named “state-dependent onset” (SDO). Next, pulses #6 to #12, as well as #1 investigated the effect of different durations of hyperpolarizations (1, 2, 4, 8, 16, 32, 64, and 498 ms, separated by 5 ms depolarizations) in the section shown by different shades of blue, and named “recovery from inactivation” (RFI). Finally, pulses #12 to #17 assessed the resting-inactivated equilibrium at different membrane potentials in the section named “steady-state inactivation” (SSI). The three sections were similar to protocols we used in previous studies ([Lukacs et al., 2018]; [Földi et al., 2021]).
In addition to automatic fitting, described in the accompanying paper ([Lukacs et al., 2021]), in this study we used a different approach to process SDO, RFI, and SSI data. […] For each of the 17 pulses peak amplitudes were measured after removing capacitive artifacts and subtracting the leak.

sodium channel = settings: cited from earlier work

In the case of `Nc1nc2ccc(OC(F)(F)F)cc2s1` [Riluzole, riluzole], the KR/KI ratio (rNaV1.4 channel) is reported as 242 and 242 ± 147, the micro-offset range (rNaV1.4 channel) is reported as 2 to 10 ms and the micro-onset range (rNaV1.4 channel) is reported as 1 to 10 ms. The “time for micro-offset to be complete” value (rNaV1.4 channel) was no more than 10 ms, the “time for micro-onset to be complete” value (rNaV1.4 channel) was no more than 10 ms and the IC50 (sodium channel; read-out: IC50 (10 Hz)) was 43 µM. The IC50 (sodium channel; read-out: IC50 (50 Hz)) was 0.9 µM.
